Measured values as given in patent US20240400715A1 (VIBRANT PHARMA, published 2024).

Sequences of proteins named here, by UniProt entry; tags and fusion partners are left off. A line that says so, or that is headed by a name, gives the form on record, which may keep a tag or linker. Residues count along the entry.
keyhole limpet haemocyanin (KLH, Sigma, H8283), UniProt Q10584, 20-3421 limits assumed, form in doubt, chain 2 of 2: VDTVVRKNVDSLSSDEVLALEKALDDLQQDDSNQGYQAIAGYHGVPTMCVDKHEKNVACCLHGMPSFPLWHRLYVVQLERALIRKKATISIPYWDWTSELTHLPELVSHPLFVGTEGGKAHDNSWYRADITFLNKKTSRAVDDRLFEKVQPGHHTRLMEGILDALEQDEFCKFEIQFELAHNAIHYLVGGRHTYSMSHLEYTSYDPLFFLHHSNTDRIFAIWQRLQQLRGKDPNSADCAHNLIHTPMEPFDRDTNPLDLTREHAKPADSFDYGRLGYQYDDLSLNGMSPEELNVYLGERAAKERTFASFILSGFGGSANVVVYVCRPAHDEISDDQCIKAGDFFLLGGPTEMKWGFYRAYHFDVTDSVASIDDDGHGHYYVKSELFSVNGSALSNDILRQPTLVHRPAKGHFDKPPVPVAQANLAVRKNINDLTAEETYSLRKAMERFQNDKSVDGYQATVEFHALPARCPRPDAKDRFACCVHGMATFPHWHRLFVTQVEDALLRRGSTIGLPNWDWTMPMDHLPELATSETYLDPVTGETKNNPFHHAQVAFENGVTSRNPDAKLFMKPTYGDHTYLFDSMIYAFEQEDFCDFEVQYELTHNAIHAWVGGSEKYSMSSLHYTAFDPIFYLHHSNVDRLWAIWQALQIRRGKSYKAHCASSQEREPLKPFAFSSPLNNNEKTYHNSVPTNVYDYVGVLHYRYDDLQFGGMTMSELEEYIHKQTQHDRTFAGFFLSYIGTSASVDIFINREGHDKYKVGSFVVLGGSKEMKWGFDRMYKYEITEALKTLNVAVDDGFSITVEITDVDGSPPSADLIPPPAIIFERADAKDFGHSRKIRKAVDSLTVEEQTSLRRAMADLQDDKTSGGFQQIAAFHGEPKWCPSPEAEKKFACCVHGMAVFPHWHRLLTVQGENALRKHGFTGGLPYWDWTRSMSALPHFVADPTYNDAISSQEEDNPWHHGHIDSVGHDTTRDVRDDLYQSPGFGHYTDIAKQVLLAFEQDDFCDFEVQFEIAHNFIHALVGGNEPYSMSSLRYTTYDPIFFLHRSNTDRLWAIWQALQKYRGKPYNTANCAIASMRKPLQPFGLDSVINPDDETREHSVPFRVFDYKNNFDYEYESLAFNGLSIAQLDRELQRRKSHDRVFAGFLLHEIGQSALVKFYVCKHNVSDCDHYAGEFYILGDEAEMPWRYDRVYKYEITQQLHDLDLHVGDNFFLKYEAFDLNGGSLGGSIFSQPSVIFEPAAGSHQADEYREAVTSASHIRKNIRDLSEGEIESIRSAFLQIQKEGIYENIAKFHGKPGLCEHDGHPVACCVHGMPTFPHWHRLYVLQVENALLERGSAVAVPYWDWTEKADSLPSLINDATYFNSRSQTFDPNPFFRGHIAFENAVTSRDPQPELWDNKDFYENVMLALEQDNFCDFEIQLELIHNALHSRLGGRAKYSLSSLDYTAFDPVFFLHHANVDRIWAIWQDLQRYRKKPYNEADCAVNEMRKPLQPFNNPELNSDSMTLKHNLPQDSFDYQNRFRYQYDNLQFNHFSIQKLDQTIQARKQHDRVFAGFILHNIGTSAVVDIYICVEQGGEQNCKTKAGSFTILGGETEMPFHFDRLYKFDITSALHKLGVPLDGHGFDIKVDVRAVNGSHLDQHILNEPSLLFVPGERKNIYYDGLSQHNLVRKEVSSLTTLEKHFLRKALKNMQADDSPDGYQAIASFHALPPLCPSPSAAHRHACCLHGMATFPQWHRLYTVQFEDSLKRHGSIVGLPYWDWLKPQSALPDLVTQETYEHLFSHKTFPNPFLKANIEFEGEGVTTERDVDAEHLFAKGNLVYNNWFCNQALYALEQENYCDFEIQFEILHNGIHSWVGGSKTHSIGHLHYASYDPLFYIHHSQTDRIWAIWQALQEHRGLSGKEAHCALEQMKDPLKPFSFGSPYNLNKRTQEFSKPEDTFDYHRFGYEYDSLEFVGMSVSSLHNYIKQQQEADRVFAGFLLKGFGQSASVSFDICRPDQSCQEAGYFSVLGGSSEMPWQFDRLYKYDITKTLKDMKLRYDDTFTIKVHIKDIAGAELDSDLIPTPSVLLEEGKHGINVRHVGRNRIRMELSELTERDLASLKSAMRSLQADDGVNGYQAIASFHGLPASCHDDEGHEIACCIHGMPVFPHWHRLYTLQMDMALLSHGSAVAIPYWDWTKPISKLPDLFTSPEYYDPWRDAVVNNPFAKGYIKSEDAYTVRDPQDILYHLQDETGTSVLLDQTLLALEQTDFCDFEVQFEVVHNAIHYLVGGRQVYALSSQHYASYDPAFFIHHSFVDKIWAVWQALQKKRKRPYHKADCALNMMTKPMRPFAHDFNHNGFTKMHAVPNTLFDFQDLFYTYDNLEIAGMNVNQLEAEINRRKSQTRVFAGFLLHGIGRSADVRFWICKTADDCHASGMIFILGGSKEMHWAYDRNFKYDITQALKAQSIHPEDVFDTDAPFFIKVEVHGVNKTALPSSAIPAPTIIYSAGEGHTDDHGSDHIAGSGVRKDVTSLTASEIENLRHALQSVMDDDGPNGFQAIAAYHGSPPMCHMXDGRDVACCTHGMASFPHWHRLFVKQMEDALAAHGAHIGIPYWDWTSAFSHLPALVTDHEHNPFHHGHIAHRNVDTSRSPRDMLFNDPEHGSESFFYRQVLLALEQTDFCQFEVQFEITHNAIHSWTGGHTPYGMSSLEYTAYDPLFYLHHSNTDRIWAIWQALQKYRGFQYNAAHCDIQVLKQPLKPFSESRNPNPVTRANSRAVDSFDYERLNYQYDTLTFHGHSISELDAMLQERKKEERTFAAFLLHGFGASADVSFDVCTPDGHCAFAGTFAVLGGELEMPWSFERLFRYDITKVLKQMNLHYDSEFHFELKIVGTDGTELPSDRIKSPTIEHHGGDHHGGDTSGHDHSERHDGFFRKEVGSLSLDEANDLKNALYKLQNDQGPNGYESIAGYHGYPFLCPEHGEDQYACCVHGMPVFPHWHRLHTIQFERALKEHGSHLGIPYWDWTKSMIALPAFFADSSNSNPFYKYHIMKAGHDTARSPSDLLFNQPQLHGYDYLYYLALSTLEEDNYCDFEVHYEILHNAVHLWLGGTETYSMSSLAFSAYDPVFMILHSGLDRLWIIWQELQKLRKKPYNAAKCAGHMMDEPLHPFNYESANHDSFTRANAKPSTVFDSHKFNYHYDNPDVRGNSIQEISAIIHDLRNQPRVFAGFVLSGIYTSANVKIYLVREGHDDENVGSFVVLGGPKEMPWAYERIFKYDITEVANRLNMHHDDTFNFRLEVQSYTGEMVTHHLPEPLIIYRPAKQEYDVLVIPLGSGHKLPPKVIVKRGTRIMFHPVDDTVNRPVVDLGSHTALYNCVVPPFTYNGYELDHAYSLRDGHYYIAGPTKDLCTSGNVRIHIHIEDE

Biological target: T1, keyhole limpet haemocyanin (KLH, Sigma, H8283) (keyhole limpet, UniProt Q10583 17-3414; Q10584 20-3421, limits assumed)
T1 construct: Bought preparation coated on the plate in the polyspecificity ELISA
Test: ELISA, KLH coated at 5 ug/mL, 100 nM antibody, anti-human IgG-HRP

B1: Ofatumumab (antibody, V domains shown)
VH: EVQLVESGGGLVQPGRSLRLSCAASGFTFNDYAMHWVRQAPGKGLEWVSTISWNSGSIGYADSVKGRFTISRDNAKKSLYLQMNSLRAEDTALYYCAKDIQYGNYYYGMDVWGQGTTVTVSS
VL: EIVLTQSPATLSLSPGERATLSCRASQSVSSYLAWYQQKPGQAPRLLIYDASNRATGIPARFSGSGSGTDFTLTISSLEPEDFAVYYCQQRSNWPITFGQGTRLEIK
- Absorbance value (450 nm, polyspecificity ELISA): 1.63
